Earlier results, collected in patent US5135937A, “Cycloalkylene azoles and pharmaceutical preparations obtained therefrom” (Schering Aktiengesellschaft, priority 1989, dated 1992).
Where a name gives a salt, the structure may show the parent alone.

System: aromatase
Details: Cancer Res., 48: 834-838, 1988; cited from earlier work

SMILES: N#Cc1ccc(C2CCCc3cncn32)cc1 (racemic) [D, 5-(p-cyanophenyl)-5,6,7,8tetrahydroimidazo[-1,5a]pyridine, hydrochloride, reference compound]
- aromatase inhibitor (in words): strongly effective aromatase inhibitor
